From BindingDB's records for doi:10.1021/jm00059a019 (Merck Research Laboratories, 1993)

Molecular target: T1, Dimer of Gag-Pol polyprotein [489-587] (Human immunodeficiency virus 1, UniProt P12497)
T1 construct: 489-587
Assay: Protease Inhibition Assay
Details: pH 5.5; 30 °C
Description: Sensitivity of HIV-1 protease activity to protease inhibitors was determined by a peptide substrate cleavage assay. Protease products were analyzed on a reverse-phase high-pressure liquid chromatograph.

CC(C)(C)NC(=O)C1C[C@@H]2CCCC[C@@H]2CN1C[C@@H](O)[C@H](Cc1ccccc1)NC(=O)O[C@H]1CCOC1 (stereo partly drawn) [(3S)-oxolan-3-yl N-[(2S,3R)-4-[(4aS,8aS)-3-(tert-butylcarbamoyl)-decahydroisoquinolin-2-yl]-3-hydroxy-1-phenylbutan-2-yl]carbamate]
IC50: 160 nM
